Publication PMC8315922, “In Vitro Identification and In Vivo Confirmation of Inhibitors for Sweet Potato Chlorotic Stunt Virus RNA Silencing Suppressor, a Viral RNase III” (Journal of Virology, 2021)

Experiments:
[1] = system: SPFMV; details: plants in soil, 10 μM foliar spray twice a week for 1 month, vs water-treated
[2] = system: SPCSV; details: plants in soil, 10 μM foliar spray twice a week for 1 month, vs water-treated
[3] = system: SPFMV; experiment: Virus accumulation (RT-qPCR of coat protein RNA) in coinfected sweetpotato plants grown in culture medium: SPFMV; format: in vivo, Sweet potato feathery mottle virus
Procedure: (§1) Since tests in culture medium consume smaller amounts of compounds and can be carried out under relatively controlled conditions, sweetpotato plants coinfected with SPCSV and SPFMV were grown in medium supplemented with one of the 30 inhibitor candidates at a concentration of 50 μM. Their effects on plant growth were monitored by imaging the plants once a week. […] In addition, virus accumulation was quantified by measuring the relative abundance of the transcripts encoding viral coat proteins using RT-qPCR ([32]). The effect of individual compounds on virus accumulation was estimated by comparing treated and control plants. […]
(§2) For HTS, the activity of CSR3 was calculated by measuring the change in fluorescence as a function of the reaction time using MARS Data Analysis software (BMG Labtech). To evaluate the CSR3 inhibition efficiency of individual compounds, the PI of each compound was calculated using the slope values for the sample, positive control, and negative control according to the following equation: PI = 100 × [1 − (sample − positive)/(negative − positive)]%. IC50 and DSS values were calculated using concentration-specific PI values according to a previous study ([31]). Relative gene expression was calculated using the classical 2^−ΔΔ^CT method ([63]).

[4] = system: SPCSV; experiment: Virus accumulation (RT-qPCR of coat protein RNA) in coinfected sweetpotato plants grown in culture medium: SPCSV; format: in vivo, Sweet potato chlorotic stunt virus
Procedure: as §1, §2

[5] = 50 μM in culture medium, 28 days, relative to DMSO control
[6] = plants in culture medium, 50 μM

## CN1CCc2cccc3c2[C@H]1Cc1ccc(O)c(O)c1-3 [FIMM000096, reference compound]
[1]
  log2 fold change in coat protein expression of SPFMV: −1.06
[2]
  log2 fold change in coat protein expression of SPCSV: −1.41
[3]; [5]
  SPFMV_FC (fold change of viral accumulation): 0.5855
[3]; [6]
  viral titer SPFMV (log2 fold change relative to controls): −0.77
[4]; [5]
  SPCSV_FC (fold change of viral accumulation): 0.188
[4]; [6]
  viral titer SPCSV (log2 fold change relative to controls): −2.41
